Data from publication PMC10226132, “First-in-Class Selective Inhibitors of the Lysine Acetyltransferase KAT8” (Journal of Medicinal Chemistry, 2023).

Experiments:
KAT8 = molecular target: T1, KAT8 (Homo sapiens, UniProt Q9H7Z6); assay: Radioactive KAT8 inhibition assay; format: biochemical; conditions: enzyme 5 nM; 2-fold serial dilution from 200 μM; NI = no inhibition at 200 μM; mean ± SD of three independent experiments
T1 construct: using the previously purified KAT8 (173–458, 5 nM); 6xHis tag with TEV protease cleavage site (N, cleaved yes); made in house; host or cells: E. coli BL21(DE3)
T1 sequence (Q9H7Z6 173-458): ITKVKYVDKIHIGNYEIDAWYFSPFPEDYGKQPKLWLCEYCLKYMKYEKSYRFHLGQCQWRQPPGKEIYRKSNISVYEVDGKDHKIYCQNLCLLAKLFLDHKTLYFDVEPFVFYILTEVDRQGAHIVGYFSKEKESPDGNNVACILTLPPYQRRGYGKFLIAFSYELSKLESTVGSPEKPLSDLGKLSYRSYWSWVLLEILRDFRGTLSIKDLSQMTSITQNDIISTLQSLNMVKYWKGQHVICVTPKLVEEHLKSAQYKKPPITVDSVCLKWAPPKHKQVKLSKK
Experimental: KAT8 inhibition assays were performed using the previously purified KAT8 (173–458, 5 nM), radio-isotope-labeled [^3H]Acetyl-CoA (Perkin Elmer, 3 μM) as the acetyl donor, and biotinylated H4 peptide (Sigma-Aldrich, 2.5 μM) as a substrate in a 100 mM NaCl, 40 mM Tris·HCl (pH 7.5), and 1 mM DTT assay buffer. Purified KAT8 was incubated with the relevant inhibitor (1% DMSO final) in a 2-fold serial dilution starting at 200 μM for 20 min at rt. Then, [^3H]Ac-CoA and biotinylated peptide were added to a total assay volume of 50 μL and the reaction mixture was incubated at rt for 4 h. The reaction was stopped, and the mixture was transferred to a 96-well streptavidin scintillant coated FlashPlate (Perkin Elmer) and incubated for 60 min at rt. The FlashPlate was washed with 0.1% Tween-20, and the liquid scintillation counting (MicroBeta Microplate Counter, Perkin Elmer) was employed to measure the radioactive signal. Experiments were performed in biological triplicates. Signal reduction compared to control was plotted (as inhibition percentage) as a function of compound concentration and fitted by nonlinear regression (GraphPad Prism 8.0) finally yielding the IC50 values.

KDAC8 = molecular target: T2, KDAC8 (Homo sapiens, UniProt Q9BY41); assay: KDAC inhibition assay, KDAC8; format: biochemical; conditions: mean of three technical replicates
T2 sequence (Q9BY41 1-377): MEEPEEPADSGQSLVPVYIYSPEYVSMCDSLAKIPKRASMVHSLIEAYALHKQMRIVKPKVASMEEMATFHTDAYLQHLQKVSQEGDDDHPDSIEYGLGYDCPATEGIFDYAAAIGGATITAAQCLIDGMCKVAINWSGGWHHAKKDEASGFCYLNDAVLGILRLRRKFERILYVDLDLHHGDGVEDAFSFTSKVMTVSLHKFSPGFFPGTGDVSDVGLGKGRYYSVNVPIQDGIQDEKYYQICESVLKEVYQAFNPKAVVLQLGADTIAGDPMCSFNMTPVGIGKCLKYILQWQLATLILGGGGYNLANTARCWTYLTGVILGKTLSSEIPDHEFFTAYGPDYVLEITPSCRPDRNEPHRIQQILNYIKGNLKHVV
Experimental: KDAC1, 2, 3 6, and 8 inhibition assays were performed as described previously.[52] Briefly, the relevant human recombinant KDAC was diluted in an assay buffer with the following composition: 150 mM NaCl, 25 mM Tris–HCl (pH 8.0), 2.7 mM KCl, and 1 mM MgCl2; BSA (0.1 mg/mL) was also added in the case of KDAC1. Forty microliters of this solution were added to 10 μL of each inhibitor ([…]) and 50 μL of KDAC Assay substrate (Boc-Lys-(Ac)-AMC, 7–100 μM final concentration, depending on the KDAC isoform), and the resulting solution was mixed. […]. After thorough mixing of the resulting solution, the plate was covered and incubated at 37 °C for 25 min and the fluorescence (λemission = 460 nm; λexcitation = 390 nm) was measured on a EnSight Multimode Plate Reader (Perkin Elmer). The shown values are average of three technical replicates ± SD.

SMILES	IC50 (KAT8)	% Inhibition at 50 µM KDAC8 (KDAC8; 50 µM)	% Inhibition at 100 µM KDAC8 (KDAC8; 100 µM)
CCCCCCCCCCCCCCCc1cccc(O)c1C(=O)O [I (AA), anacardic acid, reference compound]	30.2 ± 2.1 µM		
O=C(CCCCCCC(=O)Nc1ccccc1)NO [SAHA, reference compound]		98.9%	99.6%
